# Key:
# Chains of the proteins cited; added tags and fusions are not shown.
# UniProt P20272, whole entry: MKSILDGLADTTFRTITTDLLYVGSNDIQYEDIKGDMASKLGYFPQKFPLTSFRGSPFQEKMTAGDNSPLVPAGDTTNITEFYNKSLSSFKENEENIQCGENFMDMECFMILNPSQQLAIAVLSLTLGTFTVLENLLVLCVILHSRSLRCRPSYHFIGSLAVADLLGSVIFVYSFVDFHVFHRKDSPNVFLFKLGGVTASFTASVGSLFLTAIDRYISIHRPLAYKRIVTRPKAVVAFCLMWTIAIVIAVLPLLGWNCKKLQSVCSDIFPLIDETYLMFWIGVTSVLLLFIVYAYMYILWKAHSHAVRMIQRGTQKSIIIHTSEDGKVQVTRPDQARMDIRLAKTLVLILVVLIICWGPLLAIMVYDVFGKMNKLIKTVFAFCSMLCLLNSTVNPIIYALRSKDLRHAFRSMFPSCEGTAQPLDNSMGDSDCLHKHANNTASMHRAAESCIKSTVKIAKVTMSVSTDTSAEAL
# CB1 receptor = CB1 receptor (Rattus norvegicus, UniProt P20272); assay: GTPγ-S binding assay, CB1; assay type: biochemical; conditions: class symbols; read-out: EC50 (GTP) CB1 receptor
# Procedure: The activity of some of the disclosed compounds for the CB1 and CB2 receptors was assessed by using the GTPγ-S binding assay (Tables 2,3,4). As used herein the “effect” of the compound on the GTPγ-S assay is represented by the EC50 (GTP) value. The lower the EC50 (GTP) value the higher the potency of the compound for the receptor A detailed description of the methods used to test compounds using the GTPγ-S assay is given in Parkkari, et al., Biorg. Med. Chem. Letters 2006, 16(9), 2437 and Griffin, et al., J. Pharmacol. Exp. Ther. 1998, 285(2), 553-560 the content of which is hereby incorporated by reference.
# CB1 receptor (rCB1) = CB1 receptor (rCB1) (Rattus norvegicus, UniProt P20272); assay: cAMP assay (inhibition of FSK stimulated cAMP), CB1; assay type: cell-based; conditions: class symbols
# Procedure: FIG. 1A is a graph providing data of the % inhibition of FSK stimulated cAMP for compound 5.4.3d for rCB1.
# Further functional characterization of some of the disclosed compounds tested initially for “binding affinity” or for GTPγ-S binding was performed by using the cyclic adenosine monophosphate (cAMP) assay. Key compounds initially characterized functionally using the GTPγ-S assay were also doubly tested using the cAMP assay to unambiguously confirm their functional profiles. The functional potency of the compounds tested using the cyclase assay is also represented by the EC50 (cAMP) value and similarly the lower the EC50 (cAMP) value the higher the potency of the compound for the receptor. A detailed description of the methods used to test compounds using the cAMP assay is given in Yingpeng, et al. J. Med. Chem. (2018) 61, 8639-8657 the content of which is hereby incorporated by reference. The EC50 values (potency of a test compound) of the functional assays may or may not be accompanied by the E(max) value in tables 1-5 (efficacy of the test compound). E(max)/efficacy is the maximum GTP stimulation or cAMP inhibition levels and is presented as the percentage of maximum response evoked by a standard CB1/CB2 full agonist (e.g., CP-55,940) for reference see the paper cited above. […]
compound,measurement,setting,value
"CCCCC/C=C\C/C=C\C/C=C\C/C=C\CCCC(=O)OC(CO)CO [Compound 2-AG, 2-arachidonoylglycerol, reference compound]",EC50,CB1 receptor,200 to 1000 nM
same,EC50,CB1 receptor (rCB1),10 to 200 nM

# Source: patent US20260234099A1, “Endocannabinoid ligands and related analogs” (Northeastern University, priority 2023, published 2026)
